Test system: T2 cells
Experiment: Determination of recognition efficiency (RE): 51Cr-release lysis of peptide-pulsed T2 targets by CTL clones
Format: cell-based, human
Details: target cells pulsed with native peptide
Description: FIGS. 3A-3J. Endogenous CTL clones have higher RE than vaccine-elicited CTL clones. CTL clones representing different tetramer^+ populations in each patient expressing different V-beta, were assayed for lysis of T2 cells pulsed with various dilutions of G209n, G209-2M, M27, or M26 peptides in ^51Cr-release cytotoxicity assays. All assays were performed in triplicate and each clone was assayed twice. Error bars reflect variation between two separate assays. 3a.-c. CTL clones 476.105 and 132.1 were assayed for lysis of T2 cells pulsed with 10-fold dilutions of a. native or c. heteroclitc peptide at concentrations ranging from 100 fg/ml to 100 ng/ml. b. CTL clones 476.105 and 132.1 were assayed for lysis of Malme-3M melanoma cells. d.-e. […] Correlation coefficients were 0.66 for MART-specific clones and 0.81 for gp100-specific clones. f.-i. Endogenous (461 and 132) and vaccine-induced (517, 520, 422 and 476) CTL clones were compared for RE in lysing target cells. f-g. Target cells were pulsed with native peptides (f.) M27 and (g.) G209n. Mean RE (weighted) for each response is indicated with horizontal bars. Weighted means were based on all clones, not only those assayed, and were estimated by summing the RE of each analyzed clone multiplied by the number of total clones expressing the same V-beta in each patient. Weighted means were: 517: 5.7; 520: 7.0; 461: 7.9; 422: 9.7; 476: 9.9; and 132: 11.2. […] Target cells were pulsed with heteroclitic peptides (h.) M26 and (i.) G209-2M. j. […]
2. Determination of recognition efficiency (RE): ^51Chromium (^51Cr)-labeled T2 targets were pulsed with a range of peptide concentrations, generally starting at 10^−7 M and decreasing by log steps to 10^−13 M. T cell clones were incubated with T2 targets at 10:1 E:T ratios for 4 hours, then ^51Cr release was measured and percentage cytotoxicity calculated by standard methods. Prior to each cytotoxicity assay, clones underwent ficoll-hypaque centrifugation to remove dead feeder cells, and were determined to be >80% CD8+ tetramer+ T cells by FACS. […]

M27: native MART peptide used to pulse target cells [reference compound]
Mean RE (weighted) (CTL clones of patient 461 (endogenous)): 7.9 | Mean RE (weighted) (CTL clones of patient 517 (vaccine-induced)): 5.7 | Mean RE (weighted) (CTL clones of patient 520 (vaccine-induced)): 7.0

— patent US7598223B2, “Methods for producing target cell reactive lymphocytes” (The Board of Trustees of the Leland Stanford Junior …, priority 2004, dated 2009)
